One compound from ChEMBL document CHEMBL3112502, “The insulin secretory action of novel polycyclic guanidines: discovery through open innovation phenotypic screening, and exploration of structure-activity relationships” (Bioorg Med Chem Lett, 2014) can be followed below.

Calls of active or inactive are those of the source. The rule behind the calls is not given here.

The test relates to INS-1E. Kind of test: Stimulation of insulin secretion in rat INS-1E cells after 1 hr by alphaLISA assay in presence of 0.1 mM glucose. Format: functional, cell-based. On the technique in general: In Alpha technology, singlet oxygen from a donor bead excites a nearby acceptor bead.

For `N=C1N[C@H](c2ccccc2)C[C@H]2CC[C@H](CCc3ccccc3)N12`, the result was inactive.
